Laboratory results from US20250361219A1, “SYSTEMS AND METHODS FOR SEPARATION OF CHEMICAL SPECIES, SUCH AS CANNABINOIDS, USING MULTIPLE LIQUID PHASES” (priority 2022, published 2025).
Read-outs that look alike come from different tables or passages of the source.

Assays:
[1] = Current platform (10/5/5 DCM/methanol/water ratio)
[2] = Literature (10/6/4 DCM/methanol/water ratio); cited from earlier work

αx/pHBA (selectivity) [1]: 2.77
Structure (SMILES): COc1cc(C(=O)O)ccc1O [Vanillic Acid, Vanillic acid]
αx/pHBA (selectivity) [2]: 2.21
